In patent US10023888B2, “Microorganism for producing L-glutamine and method for producing L-glutamine using same” (dated 2018):

Test system: Corynebacterium glutamicum KFCC 10680
Experiment: NTG mutagenesis treatment, cell death rate
Details: NTG final concentration about 200 mg/L, room temperature, about 20 minutes; plated on minimal medium, about 30° C., about 6 days

CN(N=O)C(=N)N[N+](=O)[O-]
cell death rate: about 85%
